# Laboratory results: patent US7741283B2, “Compositions and methods for inhibiting cell proliferation” (St. Louis University, priority 2003, dated 2010)
# Biological target: T1, acidic pH binding sites (Mus musculus, UniProt P14824)
# T1 sequence (P14824 2-673): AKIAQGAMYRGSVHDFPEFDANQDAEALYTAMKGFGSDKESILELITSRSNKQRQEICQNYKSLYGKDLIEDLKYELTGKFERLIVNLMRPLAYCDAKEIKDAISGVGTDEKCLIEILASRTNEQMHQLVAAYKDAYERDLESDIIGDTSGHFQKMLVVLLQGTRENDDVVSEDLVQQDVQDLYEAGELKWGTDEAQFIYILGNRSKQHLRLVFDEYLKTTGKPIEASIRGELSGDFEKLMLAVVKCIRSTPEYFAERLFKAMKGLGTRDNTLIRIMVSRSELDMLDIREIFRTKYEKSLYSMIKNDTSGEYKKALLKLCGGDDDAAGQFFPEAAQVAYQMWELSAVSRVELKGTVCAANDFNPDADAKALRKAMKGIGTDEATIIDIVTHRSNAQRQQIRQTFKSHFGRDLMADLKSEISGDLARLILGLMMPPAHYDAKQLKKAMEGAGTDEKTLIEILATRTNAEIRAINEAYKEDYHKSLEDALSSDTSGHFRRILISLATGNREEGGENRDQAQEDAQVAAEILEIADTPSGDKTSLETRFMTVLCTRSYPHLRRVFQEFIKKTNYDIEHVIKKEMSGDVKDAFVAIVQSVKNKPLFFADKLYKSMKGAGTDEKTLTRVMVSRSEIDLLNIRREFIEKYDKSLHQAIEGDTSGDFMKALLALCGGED
# Assay: Specific binding of 125I-ligands to MEF cells at acidic pH
# Details: pH 5.5
smiles,measurement,value
"OCCN1CCN(CCCN2c3ccccc3Sc3ccc(C(F)(F)F)cc32)CC1 [fluphenazine, reference compound]",Inhibition of ^125I-α2M* binding to cells,most potent inhibitors
